Data taken from ChEMBL document CHEMBL3259577, “Antagonists of the kappa opioid receptor” (Bioorg Med Chem Lett, 2014).

Tests used:
Homo sapiens [1] = species: Homo sapiens; assay: Selectivity ratio of IC50 for mu opioid receptor (unknown origin) by HCS assay to IC50 for kappa opioid receptor (unknown origin) by DRx assay
Homo sapiens [2] = species: Homo sapiens; assay: Selectivity ratio of IC50 for delta opioid receptor (unknown origin) by HCS assay to IC50 for kappa opioid receptor (unknown origin) by DRx assay

With `COc1ccc(N2CCN(CCCNC(=O)Cn3c(=O)c4cccn4c4c(C)ccnc43)CC2)cc1` the Ratio IC50 (Homo sapiens [1]) was greater than 10000 and the Ratio IC50 (Homo sapiens [2]) was greater than 10000.
